Measured values from US8178552B2, “7-Azaindole derivatives and their use in the inhibition of c-Jun N-terminal kinase” (Eisai R&D Management Co., Ltd., priority 2008, dated 2012).

Sequences of proteins named here, by UniProt entry; tags and fusion partners are left off.
UniProt P45984, whole entry: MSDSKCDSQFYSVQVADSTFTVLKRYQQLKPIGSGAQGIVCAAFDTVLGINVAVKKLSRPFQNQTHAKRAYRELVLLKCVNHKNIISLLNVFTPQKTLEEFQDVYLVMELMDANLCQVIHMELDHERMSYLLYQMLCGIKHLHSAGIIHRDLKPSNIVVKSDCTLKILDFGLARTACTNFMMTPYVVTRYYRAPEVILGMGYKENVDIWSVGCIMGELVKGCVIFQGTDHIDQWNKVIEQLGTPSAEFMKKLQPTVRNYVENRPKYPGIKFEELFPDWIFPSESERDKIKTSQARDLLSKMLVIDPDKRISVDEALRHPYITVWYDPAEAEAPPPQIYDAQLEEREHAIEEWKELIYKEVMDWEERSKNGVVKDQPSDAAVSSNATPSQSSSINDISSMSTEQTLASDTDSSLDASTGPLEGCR
UniProt P45983, whole entry: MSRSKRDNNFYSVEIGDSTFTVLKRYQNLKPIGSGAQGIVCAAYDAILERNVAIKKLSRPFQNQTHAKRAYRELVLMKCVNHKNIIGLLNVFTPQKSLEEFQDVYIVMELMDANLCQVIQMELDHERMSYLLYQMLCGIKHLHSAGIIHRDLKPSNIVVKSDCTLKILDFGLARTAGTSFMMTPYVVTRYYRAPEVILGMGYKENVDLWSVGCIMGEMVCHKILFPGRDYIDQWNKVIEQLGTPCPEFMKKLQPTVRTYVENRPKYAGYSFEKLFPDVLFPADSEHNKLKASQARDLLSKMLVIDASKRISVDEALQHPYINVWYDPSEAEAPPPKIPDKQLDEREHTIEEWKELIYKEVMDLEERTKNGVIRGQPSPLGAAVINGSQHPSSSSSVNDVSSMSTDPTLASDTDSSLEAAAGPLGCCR

Tests used:
[1] = molecular target: JNK2 (Homo sapiens, UniProt P45984); assay: JNK2 SPA assay; format: biochemical; conditions: read-out: JNK2 IC50; 3.33 μM ATP, GST-c-Jun substrate
[2] = molecular target: JNK1 (Homo sapiens, UniProt P45983); assay: JNK1 SPA assay; format: biochemical; conditions: read-out: JNK1 IC50; 2 μM ATP, GST-c-Jun substrate
[3] = tested on: panel of 100 kinases; conditions: calculated from remaining activity at 1 micromolar compound, 10 micromolar ATP, 0 = non-selective, 1 = perfect selectivity

Structure (SMILES)	IC50 [1]	IC50 [2]	Gini coefficient, compounds (I), non-aromatic C(5) group [3]
Cn1cc(-c2c[nH]c3ncc([C@H]4CC[C@H](N5CCCC5)CC4)cc23)cn1 [Compound I-24, 3-(1-methyl-1H-pyrazol-4-yl)-5-((1r,4r)-4-(pyrrolidin-1-yl)cyclohexyl)-1H-pyrrolo[2,3-b]pyridine]	562 nM	195 nM	
Cn1cc(-c2c[nH]c3ncc([C@H]4CC[C@H](N5CCOCC5)CC4)cc23)cn1 [Compound I-6, 4-((1r,4r)-4-(3-(1-methyl-1H-pyrazol-4-yl)-1H-pyrrolo[2,3-b]pyridin-5-yl)cyclohexyl)morpholine]			0.7173
Cn1cc(-c2c[nH]c3ncc([C@H]4CC[C@@H](N5CCOCC5)CC4)cc23)cn1 [Compound I-7, 4-((1s,4s)-4-(3-(1-methyl-1H-pyrazol-4-yl)-1H-pyrrolo[2,3-b]pyridin-5-yl)cyclohexyl)morpholine]	162 nM	98 nM	0.7006
CCNC1CCC(c2cnc3[nH]cc(-c4cnn(C)c4)c3c2)CC1 (stereo not drawn) [Compound I-55, Ethyl-{4-[3-(1-methyl-1H-pyrazol-4-yl)-1H-pyrrolo[2,3-b]pyridin-5-yl]-cyclohexyl}-amine]	501 nM	240 nM	
Cn1cc(-c2c[nH]c3ncc([C@H]4CC[C@H](N(C)C)CC4)cc23)cn1 [Compound I-71, (1r,4r)-N,N-dimethyl-4-(3-(1-methyl-1H-pyrazol-4-yl)-1H-pyrrolo[2,3-b]pyridin-5-yl)cyclohexanamine]	603 nM	170 nM	
CN1CCCN([C@H]2CC[C@@H](c3cnc4[nH]cc(-c5cnn(C)c5)c4c3)CC2)CC1 [Compound I-38, 5-((1s,4s)-4-(4-methyl-1,4-diazepan-1-yl)cyclohexyl)-3-(1-methyl-1H-pyrazol-4-yl)-1H-pyrrolo[2,3-b]pyridine]	158 nM	182 nM	
CC(C)N1CCN([C@H]2CC[C@@H](c3cnc4[nH]cc(-c5cnn(C)c5)c4c3)CC2)CC1 [Compound I-44, 5-((1s,4s)-4-(4-isopropylpiperazin-1-yl)cyclohexyl)-3-(1-methyl-1H-pyrazol-4-yl)-1H-pyrrolo[2,3-b]pyridine]	347 nM	132 nM	
Cn1cc(-c2c[nH]c3ncc([C@H]4CC[C@H](N5CCCOCC5)CC4)cc23)cn1 [Compound I-40, 4-((1r,4r)-4-(3-(1-methyl-1H-pyrazol-4-yl)-1H-pyrrolo[2,3-b]pyridin-5-yl)cyclohexyl)-1,4-oxazepane]			0.7684
CN1CCN([C@H]2CC[C@@H](c3cnc4[nH]cc(-c5cnn(C)c5)c4c3)CC2)CC1 [Compound I-26, 3-(1-methyl-1H-pyrazol-4-yl)-5-((1s,4s)-4-(4-methylpiperazin-1-yl)cyclohexyl)-1H-pyrrolo[2,3-b]pyridine]	617 nM	302 nM	0.6727
Cn1cc(-c2c[nH]c3ncc(C4=CCCC4)cc23)cn1 [Compound I-10, 5-cyclopentenyl-3-(1-methyl-1H-pyrazol-4-yl)-1H-pyrrolo[2,3-b]pyridine]	65 nM	31 nM	
CN1CCCN([C@H]2CC[C@H](c3cnc4[nH]cc(-c5cnn(C)c5)c4c3)CC2)CC1 [Compound I-37, 5-((1r,4r)-4-(4-methyl-1,4-diazepan-1-yl)cyclohexyl)-3-(1-methyl-1H-pyrazol-4-yl)-1H-pyrrolo[2,3-b]pyridine]	178 nM	186 nM	
CC(C)N1CCN([C@H]2CC[C@H](c3cnc4[nH]cc(-c5cnn(C)c5)c4c3)CC2)CC1 [Compound I-43, 5-((1r,4r)-4-(4-isopropylpiperazin-1-yl)cyclohexyl)-3-(1-methyl-1H-pyrazol-4-yl)-1H-pyrrolo[2,3-b]pyridine]	214 nM	100 nM	
Cn1cc(-c2c[nH]c3ncc([C@H]4CC[C@@H](N5CCCC5)CC4)cc23)cn1 [Compound I-23, 3-(1-methyl-1H-pyrazol-4-yl)-5-((1s,4s)-4-(pyrrolidin-1-yl)cyclohexyl)-1H-pyrrolo[2,3-b]pyridine]	1290 nM	646 nM	
Cn1cc(-c2c[nH]c3ncc([C@H]4CC[C@@H](N5CCCOCC5)CC4)cc23)cn1 [Compound I-39, 4-((1s,4s)-4-(3-(1-methyl-1H-pyrazol-4-yl)-1H-pyrrolo[2,3-b]pyridin-5-yl)cyclohexyl)-1,4-oxazepane]	562 nM	316 nM	0.7661
Cn1cc(-c2c[nH]c3ncc([C@H]4CC[C@@H](N5CCC(F)(F)C5)CC4)cc23)cn1 [Compound I-48, 5-((1s,4s)-4-(3,3-difluoropyrrolidin-1-yl)cyclohexyl)-3-(1-methyl-1H-pyrazol-4-yl)-1H-pyrrolo[2,3-b]pyridine]	339 nM	170 nM	
Cn1cc(-c2c[nH]c3ncc(C4CCCCC4)cc23)cn1 [Compound I-16, 5-cyclohexyl-3-(1-methyl-1H-pyrazol-4-yl)-1H-pyrrolo[2,3-b]pyridine]	135 nM	74 nM	0.5745
Cn1cc(-c2c[nH]c3ncc([C@H]4CC[C@@H](N(C)C)CC4)cc23)cn1 [Compound I-72, (1s,4s)-N,N-dimethyl-4-(3-(1-methyl-1H-pyrazol-4-yl)-1H-pyrrolo[2,3-b]pyridin-5-yl)cyclohexanamine]	955 nM	417 nM	
